# According to patent US11046753B2, “Antibody composition and buffer system therefor” (INNOVA BIOSCIENCES LTD, priority 2013, dated 2021):
# Several values for one entry are separate records, joined by “and”; a condition that tells them apart may be missing. Equal entries are not always repeated.
# Assay: Degree of ionisation of the acid group at pH 5 (Henderson-Hasselbach)
# Type: physicochemical
substance,measurement,value
Glycine,acid groups ionised (COO−),99.78% and ~99.8%
